Data on 17 compounds can be found in patent publication US9012461B2 (dated 2015).

In one experiment the test system is MDA-231-LNA primary tumours. Kind of experiment: Combination study, MDA-231-LNA orthotopic xenograft model. To be noted: single agent, p.o. 54 mg/kg BID, after 13 days of dosing. Type of experiment: in vivo, Balb/c SCID mice.
With `CN1CCC(c2ccc(Nc3ncc(C(F)(F)F)c(CCc4ccccc4CC(N)=O)n3)cc2)CC1` [Compound 16, 2-(2-(2-(2-((4-(1-methylpiperidin-4-yl)phenyl)amino)-5-(trifluoromethyl)pyrimidin-4-yl)ethyl)phenyl)acetamide], the “decrease in CD31+ vascular density in tumours” value came to 50%.

The next experiment has as its system MDA-231-LNA cells.
Experiment: not given
To be noted: 3 days.
What is called IC50 is the concentration at which inhibition is half-maximal. In turn, `NC(=O)Cc1ccccc1CCc1nc(Nc2ccc(N3CCNCC3)cc2)ncc1C(F)(F)F` [Compound 1, 2-(2-(2-(2-((4-(piperazin-1-yl)phenyl)amino)-5-(trifluoromethyl)pyrimidin-4-yl)ethyl)phenyl)acetamide] gave a half-inhibitory concentration (IC50) of 1150 nM.
Same read-out and setting: in the case of `CN1CCN(c2ccc(Nc3ncc(C(F)(F)F)c(CCc4ccccc4CC(N)=O)n3)cc2)CC1` [Compound 3, 2-(2-(2-(2-((4-(4-Methylpiperazin-1-yl)phenyl)amino)-5-(trifluoromethyl)pyrimidin-4-yl)ethyl)phenyl)acetamide] it was 1630 nM; in that of `NC(=O)Cc1ccccc1CCc1nc(Nc2ccc(C3CCCNC3)cc2)ncc1C(F)(F)F` (stereo not drawn) [Compound 4, 2-(2-(2-(2-((4-(Piperidin-3-yl)phenyl)amino)-5-(trifluoromethyl)pyrimidin-4-yl)ethyl)phenyl)acetamide], 1730 nM; in that of `CN1CCCC(c2ccc(Nc3ncc(C(F)(F)F)c(CCc4ccccc4CC(N)=O)n3)cc2)C1` (stereo not drawn) [Compound 5, 2-(2-(2-(2-((4-(1-Methylpiperidin-3-yl)phenyl)amino)-5-(trifluoromethyl)pyrimidin-4-yl)ethyl)phenyl)acetamide], 1540 nM.
`CN1CCCC(c2ccc(Nc3ncc(C(F)(F)F)c(CCc4ccccc4CC(N)=O)n3)cc2)C1` (stereo not drawn) [Compound 7, 2-(2-(2-(2-((4-(1-Methylpiperidin-3-yl)phenyl)amino)-5-(trifluoromethyl)pyrimidin-4-yl)ethyl)phenyl)acetamide] had an IC50 of 1730 nM.
Still for that read-out and setting: in the case of `NC(=O)Cc1ccccc1CCc1nc(Nc2ccc(C3CCCCN3)cc2)ncc1C(F)(F)F` (stereo not drawn) [Compound 8, 2-(2-(2-(2-((4-(Piperidin-2-yl)phenyl)amino)-5-(trifluoromethyl)pyrimidin-4-yl)ethyl)phenyl)acetamide] it was 1160 nM; in that of `CN1CCCCC1c1ccc(Nc2ncc(C(F)(F)F)c(CCc3ccccc3CC(N)=O)n2)cc1` (stereo not drawn) [Compound 9, 2-(2-(2-(2-((4-(1-methylpiperidin-2-yl)phenyl)amino)-5-(trifluoromethyl)pyrimidin-4-yl)ethyl)phenyl)acetamide], 3580 nM; in that of `NC(=O)Cc1ccccc1CCc1nc(Nc2ccc(C3CCNCC3)cc2)ncc1C(F)(F)F` [Compound 11, 2-(2-(2-(2-((4-(piperidin-4-yl)phenyl)amino)-5-(trifluoromethyl)pyrimidin-4-yl)ethyl)phenyl)acetamide], 2250 nM.
Same read-out and setting: the figure for `CC(C(N)=O)c1ccccc1CCc1nc(Nc2ccc(C3CCNCC3)cc2)ncc1C(F)(F)F` (stereo not drawn) [Compound 12, 2-(2-(2-(2-((4-(piperidin-4-yl)phenyl)amino)-5-(trifluoromethyl)pyrimidin-4-yl)ethyl)phenyl)propanamide] is 1700 nM.
As for `CN1CCC(c2ccc(Nc3ncc(C(F)(F)F)c(CCc4ccccc4CC(N)=O)n3)cc2)CC1` [Compound 16, 2-(2-(2-(2-((4-(1-methylpiperidin-4-yl)phenyl)amino)-5-(trifluoromethyl)pyrimidin-4-yl)ethyl)phenyl)acetamide], the IC50 stood at 2000 nM.
Take `NC(=O)Cc1ccccc1CCc1nc(Nc2ccc(N3CCC(N)CC3)cc2)ncc1C(F)(F)F` [Compound 20, 2-(2-(2-(2-((4-(4-Aminopiperidin-1-yl)phenyl)amino)-5-(trifluoromethyl)pyrimidin-4-yl)ethyl)phenyl)acetamide]: it took 1460 nM to reach half-maximal inhibition (IC50).
Same read-out and setting: in the case of `NC(=O)Cc1ccccc1CCc1nc(Nc2ccc3c(c2)CCNC3)ncc1C(F)(F)F` [Compound 21, 2-(2-(2-(2-((1,2,3,4-Tetrahydroisoquinolin-6-yl)amino)-5-(trifluoromethyl)pyrimidin-4-yl)ethyl)phenyl)acetamide] it was 800 nM; in that of `NC(=O)Cc1ccccc1CCc1nc(Nc2ccc(C3CNCCO3)cc2)ncc1C(F)(F)F` (stereo not drawn) [Compound 22, 2-(2-(2-(2-((4-(Morpholin-2-yl)phenyl)amino)-5-(trifluoromethyl)pyrimidin-4-yl)ethyl)phenyl)acetamide], 1070 nM; in that of `NC(=O)Cc1nccnc1CCc1nc(Nc2ccc(C3CCNCC3)cc2)ncc1C(F)(F)F` [Compound 26, 2-(3-(2-(2-((4-(Piperidin-4-yl)phenyl)amino)-5-(trifluoromethyl)pyrimidin-4-yl)ethyl)pyrazin-2-yl)acetamide], more than 5500 nM.
On to `NC(=O)Cc1cncnc1CCc1nc(Nc2ccc(C3CCNCC3)cc2)ncc1C(F)(F)F` [Compound 29, 2-(4-(2-(2-((4-(Piperidin-4-yl)phenyl)amino)-5-(trifluoromethyl)pyrimidin-4-yl)ethyl)pyrimidin-5-yl)acetamide], for which the IC50 was more than 5000 nM.
Same read-out and setting: in the case of `CCN1CCC(c2ccc(Nc3ncc(C(F)(F)F)c(CCc4ccccc4CC(N)=O)n3)cc2)CC1` [Compound 31, 2-(2-(2-(2-((4-(1-Ethylpiperidin-4-yl)phenyl)amino)-5-(trifluoromethyl)pyrimidin-4-yl)ethyl)phenyl)acetamide] it was 4100 nM.
On the same count and under the same terms, the figure for `CN1CCC(c2ccc(Nc3ncc(C(F)(F)F)c(CCc4ncccc4CC(N)=O)n3)cc2)CC1` [Compound 33, 2-(2-(2-(2-((4-(1-Methylpiperidin-4-yl)phenyl)amino)-5-(trifluoromethyl)pyrimidin-4-yl)ethyl)pyridin-3-yl)acetamide] is 1520 nM.
